PubChem BioAssay AID652197 (Broad Institute, 2013)
This is a selection; strong and weak results do not stand in their true shares. Calls of active or inactive are those of the source.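 Rule for the calls: active = mean replicate inhibition of at least 30%, or all replicates individually reaching that 30% level; inactive = mean below 30% and not every replicate reaching it.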

Amino acid sequences for entries named in this document (tags omitted).
UniProt Q9NZ08, whole entry: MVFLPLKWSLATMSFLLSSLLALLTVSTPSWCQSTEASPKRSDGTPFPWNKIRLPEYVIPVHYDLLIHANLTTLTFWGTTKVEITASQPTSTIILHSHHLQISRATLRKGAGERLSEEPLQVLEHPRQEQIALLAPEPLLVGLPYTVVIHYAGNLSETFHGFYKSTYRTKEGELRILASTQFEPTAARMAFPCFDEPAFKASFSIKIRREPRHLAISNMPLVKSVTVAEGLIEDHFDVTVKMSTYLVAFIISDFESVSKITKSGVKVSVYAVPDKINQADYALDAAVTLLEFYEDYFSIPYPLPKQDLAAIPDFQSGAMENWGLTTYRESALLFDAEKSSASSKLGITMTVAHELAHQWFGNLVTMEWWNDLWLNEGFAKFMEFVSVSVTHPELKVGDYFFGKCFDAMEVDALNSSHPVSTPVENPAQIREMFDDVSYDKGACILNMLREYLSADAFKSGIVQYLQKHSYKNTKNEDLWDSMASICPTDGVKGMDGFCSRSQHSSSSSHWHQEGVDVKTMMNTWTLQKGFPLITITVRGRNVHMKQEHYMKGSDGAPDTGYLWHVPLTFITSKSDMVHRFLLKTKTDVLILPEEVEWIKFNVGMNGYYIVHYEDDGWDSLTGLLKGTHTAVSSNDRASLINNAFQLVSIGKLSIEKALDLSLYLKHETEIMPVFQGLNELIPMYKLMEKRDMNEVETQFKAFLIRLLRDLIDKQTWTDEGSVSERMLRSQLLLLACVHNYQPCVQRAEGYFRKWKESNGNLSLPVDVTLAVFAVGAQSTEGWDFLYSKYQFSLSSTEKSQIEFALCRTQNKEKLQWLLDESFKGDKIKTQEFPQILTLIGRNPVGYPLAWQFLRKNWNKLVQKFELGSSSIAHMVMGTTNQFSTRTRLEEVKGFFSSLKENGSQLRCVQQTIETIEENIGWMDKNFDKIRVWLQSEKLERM

Target: Endoplasmic reticulum aminopeptidase 1 (Homo sapiens) (UniProt Q9NZ08)
Test: human ERAP1 aminopeptidase inhibitors, primary screen, biochemical, single point, plate reader (AID 652197);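 note: 0% = neutral control wells and 100% = L-leucinethiol positive control wells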
Settings: recombinant ERAP1, Leu-AMC fluorescence, 60 min; at 10.7 µM; hits give high values

| Structure (SMILES) | inhibition |
| --- | --- |
| COc1ccc(C(c2nnnn2C2CCCCC2)N2CCC(n3c(=O)[nH]c4ccccc43)CC2)cc1 (centres undefined) | inactive: 1.66% |
| Cc1ccccc1NC1(C#N)CCN(Cc2ccccc2)CC1 | inactive: 1.7% |
| Cn1c(=O)[nH]cc(N(CCCl)CCCl)c1=O | inactive: 2.26% |
| CN(C)c1ccc(C(=O)NCC2(N3CCCCC3)CCCCC2)cc1 | inactive: -0.435% |
| O=C(NCC1(N2CCCCC2)CCCCC1)c1ccco1 | inactive: -2.93% |
| CCC(c1nnnn1C1CCCCC1)N1CCC(n2c(=O)[nH]c3ccccc32)CC1 (centres undefined) | inactive: -3.4% |
| CC(=O)N(c1ccccc1)C1CCNCC1 | inactive: -4.07% |
| COc1cccc(C(c2nnnn2C2CCCCC2)N2CCC(n3c(=O)[nH]c4ccccc43)CC2)c1OC (centres undefined) | inactive: -0.92% |
| COc1cc(OC)cc(C(=O)NCC2(N3CCCCC3)CCCCC2)c1 | inactive: 0.996% |
| Fc1ccccc1NC1CCN(Cc2ccccc2)CC1 | inactive: -4.71% |
| Cc1ccc(C(=O)NCC2(N3CCCCC3)CCCCC2)o1 | inactive: -4.24% |
| Cc1ccc(NC2(C#N)CCN(Cc3ccccc3)CC2)cc1 | inactive: -0.02% |
| COc1cc(OC)cc(C(=O)NCC2(N3CCOCC3)CCCCC2)c1 | inactive: -1.8% |
| COc1cccc(C(c2nnnn2C2CCCC2)N2CCC(n3c(=O)[nH]c4ccccc43)CC2)c1OC (centres undefined) | inactive: -3.05% |
| COc1cccc(C(=O)N(c2cc(C)cc(C)c2)C2CCN(C(=O)OC(C)(C)C)CC2)c1 | inactive: -1.48% |
| CN1CCC(Nc2ccc(Cl)cc2)CC1 | inactive: -3.09% |
| CN1CCC(Nc2ccc(F)c(Cl)c2)CC1 | inactive: -0.102% |
| O=C(O)C1(Nc2ccccc2)CCN(Cc2ccccc2)CC1 | inactive: -10.3% |
| CC(C)(C)OC(=O)N1CCC(Nc2ccccc2)CC1 | inactive: 1.78% |
| CCCOc1ccc(C(=O)NCC2(N(C)C)CCCCC2)cc1 | inactive: -1.31% |
| COc1cccc(C(c2nnnn2C(C)(C)C)N2CCC(n3c(=O)[nH]c4ccccc43)CC2)c1OC (centres undefined) | inactive: -1.69% |
| CCOC(=O)N1CCC(Nc2ccc(C)cc2)CC1 | inactive: -0.578% |
| O=c1[nH]c2ccccc2n1C1CCN(C(c2cccs2)c2nnnn2C2CCCC2)CC1 (centres undefined) | inactive: -3.26% |

| Structure (SMILES) | inhibition |
| --- | --- |
| CCCCn1nnnc1C(c1cccc(OC)c1OC)N1CCC(n2c(=O)[nH]c3ccccc32)CC1 (centres undefined) | inactive: 3.49% |
| COc1cc(C(=O)NCC2(N3CCOCC3)CCCCC2)cc(OC)c1C | inactive: 4.45% |
| CCCCn1nnnc1C(c1ccccc1)N1CCC(n2c(=O)[nH]c3ccccc32)CC1 (centres undefined) | inactive: -1.36% |
| O=C(NCC1(N2CCOCC2)CCCCC1)c1cc(Br)ccc1Cl | inactive: -3.21% |
| O=c1[nH]c2ccccc2n1C1CCN(C(c2cccs2)c2nnnn2C2CCCCC2)CC1 (centres undefined) | inactive: 2.76% |
| O=c1[nH]c2ccccc2n1C1CCN(C(c2ccnc3ccccc23)c2nnnn2C2CCCC2)CC1 (centres undefined) | inactive: -1.74% |
| COc1ccc(C(=O)NCC2(N3CCOCC3)CCCCC2)cc1OC | inactive: 0.26% |
| CN(C)C1(CNC(=O)c2cccc(C#N)c2)CCCCC1 | inactive: 0.829% |
| Cc1cc(N(CCCl)CCCl)ccc1C=O | inactive: -6.61% |
| O=c1[nH]c2ccccc2n1C1CCN(C(c2ccccc2)c2nnnn2C2CCCC2)CC1 (centres undefined) | inactive: -1.49% |
| CCCN1CCC(Nc2cc(OC)cc(OC)c2)CC1 | inactive: 2.28% |
| C/C(N)=N\P(=O)(Oc1ccccc1)Oc1ccccc1 | inactive: -0.368% |
| CC(C)(C)OC(=O)N1CCC(N(C(=O)c2ccccc2)c2ccc(Cl)cc2)CC1 | inactive: -0.041% |
| O=C(NCC1(N2CCCCC2)CCCCC1)c1cccc(C(F)(F)F)c1 | inactive: -3.83% |
| COc1cc(C(=O)NCC2(N3CCCCC3)CCCCC2)ccc1OC(F)F | inactive: -0.919% |
| CN1CCN(CCOC(=O)C(O)(c2ccccc2)c2ccccc2)CC1 | inactive: 1.4% |
| CC(C)c1ccc(C(=O)NCC2(N3CCOCC3)CCCCC2)cc1 | inactive: -3.67% |
| COc1ccc(NC2CCN(C(=O)OC(C)(C)C)CC2)cc1 | inactive: -0.396% |
| O=C(NCC1(N2CCCCC2)CCCCC1)c1ccc(OC(F)F)cc1 | inactive: -4.02% |
| O=c1[nH]c2ccccc2n1C1CCN(C(c2ccccc2OC(F)(F)F)c2nnnn2C2CCCC2)CC1 (centres undefined) | inactive: 0.722% |
| CCN1CCC(Nc2ccc(Cl)cc2)CC1 | inactive: 2.51% |
| O=C(NCC1(N2CCCCC2)CCCCC1)c1cccc([N+](=O)[O-])c1 | inactive: -2.92% |
| CSc1ccc(C(=O)NCC2(N3CCOCC3)CCCCC2)cc1 | inactive: -2.14% |

| Structure (SMILES) | inhibition |
| --- | --- |
| O=C(NCC1(N2CCCCC2)CCCCC1)c1cncc(Br)c1 | inactive: -1.71% |
| CN1CCC(Nc2cccc(F)c2)CC1 | inactive: 4.19% |
| COc1ccc(C(c2nnnn2C2CCCC2)N2CCC(n3c(=O)[nH]c4ccccc43)CC2)cc1 (centres undefined) | inactive: -3.12% |
| CCCOc1ccc(C(=O)NCC2(N(C)C)CCCCC2)cc1OC | inactive: -0.084% |
| Cc1ccc(C(=O)NCC2(N(C)C)CCCCC2)o1 | inactive: 0.028% |
| CC(C)c1ccc(NC2CCN(C(=O)OC(C)(C)C)CC2)cc1 | inactive: 2.38% |
| CN(C)c1cccc(C(=O)NCC2(N3CCCCC3)CCCCC2)c1 | inactive: 1.12% |
| COc1ccc(CN(CCCl)CCCl)cc1Cl | inactive: -0.387% |
| O=C(NCC1(N2CCOCC2)CCCCC1)c1cc(F)c(F)cc1Cl | inactive: 0.457% |
| CCC(c1nnnn1C(C)(C)C)N1CCC(n2c(=O)[nH]c3ccccc32)CC1 (centres undefined) | inactive: -3.48% |
| COc1cc(OC)c(C(=O)NCC2(N(C)C)CCCCC2)cc1OC | inactive: 1.09% |
| CCCCn1nnnc1C(c1ccnc2ccccc12)N1CCC(n2c(=O)[nH]c3ccccc32)CC1 (centres undefined) | inactive: -2.89% |
| Cc1cc(C)cc(N(C(=O)c2ccccc2)C2CCN(C(=O)OC(C)(C)C)CC2)c1 | inactive: 0.177% |
| O=c1[nH]c2ccccc2n1C1CCN(C(c2ccccc2OC(F)(F)F)c2nnnn2C2CCCCC2)CC1 (centres undefined) | inactive: -1.24% |
| O=C(NCC1(N2CCCCC2)CCCCC1)c1ccc(Cl)nc1 | inactive: 3.67% |
| COc1ccc(Cl)cc1C(=O)NCC1(N2CCOCC2)CCCCC1 | inactive: 0.827% |
| O=C(OC1CN2CCC1CC2)C1c2ccccc2Oc2ccccc21 (centres undefined) | inactive: 1.16% |
| O=c1[nH]c2ccccc2n1C1CCN(C(c2cc3ccccc3o2)c2nnnn2C2CCCCC2)CC1 (centres undefined) | inactive: 2.45% |
| O=C(NCC1(N2CCCCC2)CCCCC1)c1ccc(Cl)s1 | inactive: -1.61% |
| N#CC1(Nc2ccccc2)CCN(Cc2ccccc2)CC1 | inactive: 2.12% |
| CCCCn1nnnc1C(c1ccc(OC)cc1)N1CCC(n2c(=O)[nH]c3ccccc32)CC1 (centres undefined) | inactive: -3.82% |
| CCOC(=O)N1CCC(Nc2ccc(OC)cc2)CC1 | inactive: -0.99% |
| CCC(c1nnnn1C1CCCC1)N1CCC(n2c(=O)[nH]c3ccccc32)CC1 (centres undefined) | inactive: 0.671% |

| Structure (SMILES) | inhibition |
| --- | --- |
| CC(C)(C)OC(=O)N1CCC(N(C(=O)c2ccccc2)c2ccc(F)cc2)CC1 | inactive: -1.44% |
| COc1ccc(C(=O)NCC2(N3CCCCC3)CCCCC2)c(OC)c1OC | inactive: 5.43% |
| COc1ccc(C(=O)NCC2(N3CCCCC3)CCCCC2)cc1 | inactive: 1.89% |
| CCCCn1nnnc1C(c1cccs1)N1CCC(n2c(=O)[nH]c3ccccc32)CC1 (centres undefined) | inactive: -1.03% |
| O=C(NCC1(N2CCCCC2)CCCCC1)c1cccs1 | inactive: -2.41% |
| CCCCn1nnnc1C(CC)N1CCC(n2c(=O)[nH]c3ccccc32)CC1 (centres undefined) | inactive: -0.223% |
| O=C(NCC1(N2CCCCC2)CCCCC1)c1ccc(=O)[nH]c1 | inactive: 0.817% |
| Cc1cccc(NC2(C#N)CCN(Cc3ccccc3)CC2)c1 | inactive: 1.96% |
| CSc1ccccc1C(=O)NCC1(N2CCCCC2)CCCCC1 | inactive: 1.92% |
| O=c1[nH]c2ccccc2n1C1CCN(C(c2ccccc2)c2nnnn2C2CCCCC2)CC1 (centres undefined) | inactive: 2.26% |
| COc1cc(C(=O)NCC2(N(C)C)CCCCC2)ccc1OC(F)F | inactive: -1.65% |
| CCOC(=O)N1CCC(Nc2cccc(C)c2)CC1 | inactive: 0.282% |
| O=C1CCN(Cc2ccccc2)CC1 | inactive: 0.369% |
| CC(C)(C)n1nnnc1C(c1ccccc1)N1CCC(n2c(=O)[nH]c3ccccc32)CC1 (centres undefined) | inactive: 3.32% |
| CCOc1ccc(C)cc1CN(CCCl)CCCl | inactive: -1.84% |
| CCOC(=O)N1CCC(Nc2ccc(F)cc2)CC1 | inactive: -0.18% |
| O=C(NCC1(N2CCCCC2)CCCCC1)c1ccc(F)cc1 | inactive: -2.29% |
| CCCCn1nnnc1C(c1cc2ccccc2o1)N1CCC(n2c(=O)[nH]c3ccccc32)CC1 (centres undefined) | inactive: -2.12% |
| O=P1(N(CCCl)CCCl)SCCCS1 | inactive: -3.35% |
| CCCCOc1ccc(C(=O)NCC2(N3CCOCC3)CCCCC2)cc1 | inactive: 1.18% |
